This passage reports IC50 results from patent publication US5300499A, “5-substituted 3-thiophene sulfonamides as antiglaucoma agents” (Allergan, Inc., priority 1992, dated 1994).

This assay addresses T1, pure CA11 enzyme from human erythrocyte (Homo sapiens, UniProt P00918).
T1 construct: pure CA11 enzyme from human erythrocyte; from tissue; host or cells: human erythrocyte
Kind of assay: Carbonic anhydrase activity assay, micromethod of Maren. It counts as biochemical. Conditions: concentration that lowers the enzyme activity to half; 0°-4° C.; phenol red endpoint, pH 9.9 to 6.8. As for the experimental part: Carbonic anhydrase activity was assayed according to the micromethod of Maren (J. Pharmacol. Exptl. Therap., 130, 26-29, 1960). All solutions and reagents were maintained at 0°-4° C. The final assay mixture contained 16 mM phenol red, added enzyme and 62.5 mM sodium carbonate/bicarbonate. Its volume was kept constant at 0.8 mL. The time required for the added enzyme to lower the pH of CO2 -saturated carbonate/bicarbonate buffer from pH 9.9 to 6.8 was measured using the color change of phenol red as endpoint. T1 is the time recorded for the reaction containing no enzyme. T2 is the time recorded for the reaction containing pure CA11 enzyme from human erythrocyte, or an unknown amount in a sample. Enzyme activities (unit) were calculated using the formula:
Unit/ug=(T1 -T2)/(T2 *ug protein used in assay)
IC50 of a carbonic anhydrase inhibitor is the concentration that lowers the enzyme activity to half.
“5-n-Heptyl-3-thiophene sulfonamide [5-heptyl-3-thiophene sulfonamide]” registered a 50% inhibitory concentration (IC50) of 0.021 µM.
Then `CC(=O)OCc1ccc(C(O)c2cc(S(N)(=O)=O)cs2)cc1` (stereo not shown) [5-(4-acetoxymethylbenzhydrol)-3-thiophene sulfonamide], with 0.021 µM.
Then `CN(C)CCOC(=O)c1ccc(C(=O)c2cc(S(N)(=O)=O)cs2)cc1` [5-(4-(2-N,N-dimethylamino-1-ethoxy)carbonylbenzoyl)-3-thiophene sulfonamide], with 0.025 µM.
“5-(3-butoxycarbonylbenzoyl)-3-thiophene sulfonamide” had a half-maximal inhibitory concentration (IC50) of 0.025 µM.

One may read the IC50 as the concentration that gives 50% inhibition.
